Test results: ChEMBL document CHEMBL1240530, “Inhalation by design: novel ultra-long-acting β(2)-adrenoreceptor agonists for inhaled once-daily treatment of asthma and chronic obstructive pulmonary disease that utilize a sulfonamide agonist headgroup” (J Med Chem, 2010)

Species: Canis familiaris

For COc1ccc(CC(C)NCC(O)c2ccc(O)c(NC=O)c2)cc1 (stereo unspecified) [FORMOTEROL], the ED50 was 0.1 µg.
